The subject of this series is N[C@@H](Cc1ccc(O)cc1)C(=O)O. Kind of series: cells, lysate or membranes. Conditions: apparent constant; N201S variant; copper enzyme; assay details in supplement.

On to “CnTYR (Candidatus Nitrosopumilus salarius BD31; N201S)”, for which the Km (in general, the concentration of substrate that gives half-maximal velocity) amounted to 1890 µM; the kcat (in general, the number of substrate molecules converted per active site and unit of time at saturation) is 182.9 s⁻¹.

Source of the values: article PMC9481557, “Enzymatic synthesis of benzylisoquinoline alkaloids using a parallel cascade strategy and tyrosinase variants” (Nature Communications, 2022).
